Laboratory results published in patent publication US20040077651A1, “Remedies for cancer” (priority 2000, published 2004).

Amino acid sequences for entries named in this document (tags omitted). Residues count along the entry.
UniProt O15496, 43-165 limits assumed: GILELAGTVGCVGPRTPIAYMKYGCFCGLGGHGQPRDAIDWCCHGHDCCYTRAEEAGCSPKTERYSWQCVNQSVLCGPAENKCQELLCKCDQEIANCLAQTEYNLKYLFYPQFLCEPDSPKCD

How the values were obtained:
[1] = target: T1, Human type-X sPLA2 (Homo sapiens, UniProt O15496); experiment: Human type-X sPLA2-induced oleic acid release in HT-29 cells; settings: compound 10 μM, 100 nM human type-X sPLA2, 30 min at 37° C., percentage of the increase caused by type-X sPLA2 (no treatment group = 100)
[2] = target: T1, Human type-X sPLA2; experiment: Type-X sPLA2-induced PGE2 production in HT-29 cells; settings: HT-29 cells pretreated with TNF-α; compound 10 μM; 100 nM human type-X sPLA2, 3 h at 37° C.; percentage of PGE2 produced by type-X sPLA2 (no treatment group = 100)

CCc1c(C(=O)C(N)=O)c2c(OCC(=O)O)nc(C)cn2c1Cc1cccc(-c2ccccc2)c1
Oleic acid release [1]: -3 ··
PGE2 production [2]: -4.1 ··
